Assay results from article PMC9541320, “Machine Learning Guided Discovery of Non‐Hemolytic Membrane Disruptive Anticancer Peptides” (Chemmedchem, 2022).

Test system: human red blood cells (hRBC)
Test: Hemolysis assay on human red blood cells
Format: cell-based
Settings: human red blood cells in 10 mM phosphate buffer saline, pH 7.4, 25 °C
From the text: Synthesis and bioactivity testing. We prepared the 33 selected peptides, as well as the reference ACP LL‐III, by semi‐automated high‐temperature Fmoc solid‐phase peptide synthesis and obtained pure samples by preparative HPLC. All peptides were well‐behaved in terms of aqueous solubility, in line with the presence of two to seven cationic residues (lysine or arginine) in each sequence (Table 1). […]. We performed full IC50 determination for active sequences under the same conditions and similarly profiled HEK293 cells as a model for non‐cancer cells. Finally, we determined peptide concentrations causing 50 % hemolysis (HC50) on human red blood cells (hRBC) by serial 2‐fold dilution.
Hemolysis assay. Compounds were subjected to a hemolysis assay to assess the hemolytic effect on human red blood cells (hRBCs). […]. Controls on each plate included a blank medium control (PBS 100 μL) and a hemolytic activity control (0.1 % Triton^TM X‐100). 100 μL of hRBC suspension was incubated with 100 μL of each sample in PBS in V‐shape 96‐well plate. […]. Hemolysis was measured by analyzing the absorbance of free hemoglobin leaked out of compromised in the supernatants at 540 nm with a plate reader (Tecan instrument Infinite M1000). The percentage of hemolysis at each concentration was detected and HC50 was determined.

Substance: anwkkwigkviklvk [DB1]
- Hemolysis HC50 hRBC: >200 µM
